## Permeability data for macrocyclic peptides

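Conditions beyond the assay type are not listed; see the original paper. Other peptides of the study may be missing here. Entries at the database's floor value (log10 P of -10) are not listed.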

PAMPA measures passive passage through an artificial lipid membrane. Caco-2 values are permeabilities across monolayers of Caco-2 human intestinal cells. Permeability is given as log10 of P in cm/s; higher (less negative) is more permeable. Cells with "n/a" have no entry in this list.

* CCCC[C@@H]1NC(=O)[C@H](CC(C)C)N(C)C(=O)CN(CC2CCCCC2)C(=O)[C@H](CC(C)C)NC(=O)CN(CCCOC(C)C)C(=O)[C@H]2CCCN2C1=O: PAMPA -5.76 (log10 cm/s)
* CCCC[C@@H]1NC(=O)[C@H](CC(C)C)N(C)C(=O)CN(CCOc2ccccc2)C(=O)[C@H](Cc2ccc3ccccc3c2)NC(=O)CN(Cc2ccc(Cl)cc2)C(=O)[C@H]2CCCN2C1=O: PAMPA -9.41 (log10 cm/s)
* CCCC[C@@H]1NC(=O)[C@H](CC(C)C)N(C)C(=O)CN(CC2CCOCC2)C(=O)[C@H](CC(C)C)NC(=O)CN(CC(C)C)C(=O)[C@H]2CCCN2C1=O: PAMPA -5.07 (log10 cm/s)
* CCCC[C@@H]1NC(=O)[C@H](CC(C)C)N(C)C(=O)CN(CCOC)C(=O)[C@H](CC(C)C)NC(=O)CN(CC)C(=O)[C@H]2CCCN2C1=O: PAMPA -5.55 (log10 cm/s)
* CCCC[C@@H]1NC(=O)[C@H](CC(C)C)N(C)C(=O)CN(CCCN2CCCC2=O)C(=O)[C@H](Cc2ccc3ccccc3c2)NC(=O)CN(CC(C)C)C(=O)[C@H]2CCCN2C1=O: PAMPA -5.69 (log10 cm/s)
* CCCC[C@@H]1NC(=O)[C@H](CC(C)C)N(C)C(=O)CN(CCc2cccnc2)C(=O)[C@H](C)NC(=O)CN(Cc2ccc(Cl)cc2)C(=O)[C@H]2CCCN2C1=O: PAMPA -5.65 (log10 cm/s)
* CCCC[C@@H]1NC(=O)[C@H](CC(C)C)N(C)C(=O)CN(CCCN2CCCC2=O)C(=O)[C@H](Cc2ccccc2)NC(=O)CN(CCCCc2ccccc2)C(=O)[C@H]2CCCN2C1=O: PAMPA -6.12 (log10 cm/s)
* CCCC[C@@H]1NC(=O)[C@H](CC(C)C)N(C)C(=O)CN(CCc2cccnc2)C(=O)[C@H](Cc2ccccc2)NC(=O)CN(CCCOC(C)C)C(=O)[C@H]2CCCN2C1=O: PAMPA -5.51 (log10 cm/s); Caco-2 -5.89 (log10 cm/s)
* CCCC[C@@H]1NC(=O)[C@H](CC(C)C)N(C)C(=O)CN(CCOC)C(=O)[C@H](Cc2ccccc2)NC(=O)CN(CC(C)C)C(=O)[C@H]2CCCN2C1=O: PAMPA -5.06 (log10 cm/s)
* CCCC[C@@H]1NC(=O)[C@H](CC(C)C)N(C)C(=O)CN(Cc2ccccc2)C(=O)[C@H](C)NC(=O)CN(Cc2ccc(Cl)cc2)C(=O)[C@H]2CCCN2C1=O: PAMPA -5.48 (log10 cm/s)
* CCCC[C@@H]1NC(=O)[C@H](CC(C)C)N(C)C(=O)CN(CCc2cccnc2)C(=O)[C@H](CC(C)C)NC(=O)CN(CCCOC(C)C)C(=O)[C@H]2CCCN2C1=O: PAMPA -5.48 (log10 cm/s)
* CCCC[C@@H]1NC(=O)[C@H](CC(C)C)N(C)C(=O)CN(Cc2ccccc2)C(=O)[C@H](Cc2ccccc2)NC(=O)CN(Cc2cc(CC(C)C)on2)C(=O)[C@H]2CCCN2C1=O: PAMPA -6.97 (log10 cm/s)
* CCCCCN1CC(=O)N(C)[C@@H](CC(C)C)C(=O)N[C@@H](CCCC)C(=O)N2CCC[C@@H]2C(=O)N(CC(C)C)CC(=O)N[C@@H](C)C1=O: PAMPA -4.90 (log10 cm/s)
* CCCC[C@@H]1NC(=O)[C@H](CC(C)C)N(C)C(=O)CN(CCOc2ccccc2)C(=O)[C@H](Cc2ccc3ccccc3c2)NC(=O)CN(Cc2cc(CC(C)C)on2)C(=O)[C@H]2CCCN2C1=O: PAMPA -8.27 (log10 cm/s)
* CCCC[C@@H]1NC(=O)[C@H](CC(C)C)N(C)C(=O)CN(CC2CCCCC2)C(=O)[C@H](C)NC(=O)CN(Cc2cc(CC(C)C)on2)C(=O)[C@H]2CCCN2C1=O: PAMPA -5.39 (log10 cm/s)
* CCCC[C@@H]1NC(=O)[C@H](CC(C)C)N(C)C(=O)CN(CC2CCOCC2)C(=O)[C@H](Cc2ccc3ccccc3c2)NC(=O)CN(CCCOC(C)C)C(=O)[C@H]2CCCN2C1=O: PAMPA -5.28 (log10 cm/s)
* CCCCCN1CC(=O)N(C)[C@@H](CC(C)C)C(=O)N[C@@H](CCCC)C(=O)N2CCC[C@@H]2C(=O)N(CCCOC(C)C)CC(=O)N[C@@H](CC(C)C)C1=O: PAMPA -5.24 (log10 cm/s)
* CCCC[C@@H]1NC(=O)[C@H](CC(C)C)N(C)C(=O)CN(CCOc2ccccc2)C(=O)[C@H](Cc2ccc3ccccc3c2)NC(=O)CN(CCC)C(=O)[C@H]2CCCN2C1=O: PAMPA -7.29 (log10 cm/s)
* CCCC[C@@H]1NC(=O)[C@H](CC(C)C)N(C)C(=O)CN(CCCN2CCCC2=O)C(=O)[C@H](Cc2ccccc2)NC(=O)CN(Cc2ccc(Cl)cc2)C(=O)[C@H]2CCCN2C1=O: PAMPA -5.78 (log10 cm/s)

The first 2 entries again:

structure (SMILES)	PAMPA (log10 cm/s)	Caco-2 (log10 cm/s)
CCCC[C@@H]1NC(=O)[C@H](CC(C)C)N(C)C(=O)CN(CC2CCCCC2)C(=O)[C@H](CC(C)C)NC(=O)CN(CCCOC(C)C)C(=O)[C@H]2CCCN2C1=O	-5.76	n/a
CCCC[C@@H]1NC(=O)[C@H](CC(C)C)N(C)C(=O)CN(CCOc2ccccc2)C(=O)[C@H](Cc2ccc3ccccc3c2)NC(=O)CN(Cc2ccc(Cl)cc2)C(=O)[C@H]2CCCN2C1=O	-9.41	n/a

Collected by the curators of CycPeptMPDB (Li et al. 2023) from Furukawa et al. 2016, doi:10.1021/acs.jmedchem.6b01246.